From US20110250133A1, “GASTRIN RELEASING PEPTIDE COMPOUNDS” (priority 2003, published 2011)

By UniProt entry, the sequences of proteins in these tests, tags left out. Where a name states a change or a piece, a line headed by the entry shows the natural chain unless it says otherwise.
UniProt P30550: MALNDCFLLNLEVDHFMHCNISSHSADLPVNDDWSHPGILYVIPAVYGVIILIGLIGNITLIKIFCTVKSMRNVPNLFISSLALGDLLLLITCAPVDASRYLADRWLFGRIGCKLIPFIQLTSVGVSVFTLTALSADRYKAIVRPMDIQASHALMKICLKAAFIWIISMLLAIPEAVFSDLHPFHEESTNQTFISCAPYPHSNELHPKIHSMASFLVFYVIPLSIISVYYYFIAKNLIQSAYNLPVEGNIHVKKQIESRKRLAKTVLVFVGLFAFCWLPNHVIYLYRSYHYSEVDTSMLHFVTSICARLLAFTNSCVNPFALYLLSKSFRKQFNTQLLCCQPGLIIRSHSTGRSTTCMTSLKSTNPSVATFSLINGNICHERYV
UniProt P32247: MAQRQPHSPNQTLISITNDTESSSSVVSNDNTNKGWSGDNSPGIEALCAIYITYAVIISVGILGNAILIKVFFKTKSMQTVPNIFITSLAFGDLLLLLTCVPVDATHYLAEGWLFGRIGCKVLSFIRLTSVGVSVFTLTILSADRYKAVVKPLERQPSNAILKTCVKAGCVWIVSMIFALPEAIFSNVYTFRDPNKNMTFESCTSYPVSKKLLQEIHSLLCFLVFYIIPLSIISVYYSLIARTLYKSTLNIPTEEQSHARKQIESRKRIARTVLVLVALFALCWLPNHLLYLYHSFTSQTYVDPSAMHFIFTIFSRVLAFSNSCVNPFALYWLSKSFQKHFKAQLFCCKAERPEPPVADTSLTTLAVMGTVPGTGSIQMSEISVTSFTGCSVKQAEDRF

Legend:
GRP-R = target: T1, GRP-R (Homo sapiens, UniProt P30550); experiment: Competition studies of modified BBN analogs with 125I-BBN for GRP-R in PC3 cells (Example LXI); format: binding
T1 construct: host or cells: PC3 (PC-3) human prostate cancer cells, intact adherent cells

[1] = target: human bombesin receptor subtype 3 (BB3-R) (human) (UniProt P32247); experiment: competition with 125I-universal ligand, receptor autoradiography on human cancer tissue
[2] = tested on: PC3 tumor-bearing nude mice; format: in vivo, mouse; details: 177Lu-labeled, compared with control DO3A-monoamide-Aoc-QWAVGHLM-NH2
[3] = tested on: human PC-3 nude mouse model; format: in vivo; details: 177Lu complex, i.v.
NMB-R = target: T2, NMB-R (Rattus norvegicus, UniProt P24053); experiment: Competition with 125I-NMB for NMB-R in C6 cells (linker specificity); format: binding, rodent; details: Table 16;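 also: test cells: rodent glioblastoma C6 line carrying NMB-R, human prostate cancer PC3 line carrying GRP-R, affinity fitted by one-site competition nonlinear regression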
T2 construct: C6, an NMB-R expressing rodent glioblastoma cell line; host or cells: C6 glioblastoma cells, intact adherent cells
T2 sequence (P24053 1-390): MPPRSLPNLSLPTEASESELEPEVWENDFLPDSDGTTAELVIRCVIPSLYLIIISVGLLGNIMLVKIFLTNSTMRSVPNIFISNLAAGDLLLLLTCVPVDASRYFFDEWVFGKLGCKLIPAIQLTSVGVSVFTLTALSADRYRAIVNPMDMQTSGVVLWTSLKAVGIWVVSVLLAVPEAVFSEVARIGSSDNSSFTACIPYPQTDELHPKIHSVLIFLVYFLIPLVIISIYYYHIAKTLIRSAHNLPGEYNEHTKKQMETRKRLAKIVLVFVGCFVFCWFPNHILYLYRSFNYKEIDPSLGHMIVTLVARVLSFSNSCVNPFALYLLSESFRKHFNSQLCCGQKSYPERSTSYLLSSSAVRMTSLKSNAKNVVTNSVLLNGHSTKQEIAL

[4] = Table 16, read-out: IC50 PC3/GRP-R

Work on “N-[(3β,5β,12α)-3-[[[4,7,10-Tris(carboxymethyl)-1,4,7,10-tetraazacyclododec-1-yl]acetyl]amino]-glycyl-4-aminobenzoyl-L-leucyl-L-tryptophyl-L-alanyl-L-valinyl-glycyl-L-serinyl-L-phenylalanyl-L-methioninamide [Compound L225]” yielded an IC50 (GRP-R; [4]) of 240 nM.

Work on “N-[(3β,5β,12α)-3-[[[4,7,10-Tris(carboxymethyl)-1,4,7,10-tetraazacyclododec-1-yl]acetyl]amino]-glycyl-4-aminobenzoyl-L-glutaminyl-L-tryptophyl-L-alanyl-glycyl-L-histidyl-L-phenylalanyl-L-leucinamide [Compound L224]” yielded an IC50 (GRP-R; Table 17, read-out: IC50 PC3/GRP-R) of over 500 nM.

“[DTyr6, βAla11, Phe13, Nle14]-BBN(6-14) (peptide)” showed an IC50 [1] of 0.0011 µM.

With “N-[4-[[[[[4,7,10-Tris(carboxymethyl)-1,4,7,10-tetraazacyclododec-1-yl]acetyl]amino]acetyl]amino]benzoyl]-L-glutaminyl-L-tryptophyl-L-alanyl-L-valyl-glycyl-L-histidyl-L-leucyl-L-methioninamide [Compound L70]” the “uptake in the mouse pancreas” value [2] was “much higher”, the “Blood 24 h % ID” value ([3]; 24 h) was 0.02 ± 0.00 % ID and the “Blood 7 d % ID” value ([3]; 7 d) was 0.00 ± 0.00 % ID.

yGNLWATGHFM-NH2 showed an IC50 (GRP-R; Table 15, read-out: IC50 [nM], competition with 125I-BBN for GRP-R in PC3 cells) of 450 nM, an IC50 (GRP-R; [4]) of 885 nM and an IC50 (NMB-R) of 0.00016 µM.

For “N-[(3β,5β,12α)-3-[[[4,7,10-Tris(carboxymethyl)-1,4,7,10-tetraazacyclododec-1-yl]acetyl]amino]-glycyl-4-aminobenzoyl-L-leucyl-L-tryptophyl-L-alanyl-L-threonyll-glycyl-L-histidyl-L-phenylalanyl-L-methioninamide [Compound L227]”, the IC50 (GRP-R; [4]) was 28 nM.

Read-outs that look alike come from different tables or passages of the source.
